Tested on: mouse chronic constrictive injury of the sciatic nerve (CCI) model of neuropathic pain
Details: 40 mg/kg i.p.

N#Cc1ccc2c(C(CC(F)(F)F)c3cccs3)c(-c3ccccc3)[nH]c2c1 (racemic) [(±)-1, 2-Phenyl-3-(3,3,3-trifluoro-1-(thiophen-2-yl)propyl)-1H-indole-6-carbonitrile]
time of significant anti-allodynic effect post-administration: 0.5 h | time to maximal anti-allodynic effectiveness: ≤ 1 h
